Experimental data as given in US9682960B2 (priority 2013, dated 2017).
Like-named read-outs stand apart in the source and are kept apart here.

Test system: castrated (CX) immature male rats bearing a DHT implant
Conditions: 7 days; for CX + DHT Antagonistic activity % Inhibition Bulbo: bulbocavernosus muscles weight; for CX + DHT Antagonistic activity % Inhibition SV: seminal vesicles weight; for CX + DHT Antagonistic activity % Inhibition Prostate: ventral prostate weight

Row | Compound | CX + DHT Antagonistic activity % Inhibition Bulbo (0.5 mg/rat/po) | CX + DHT Antagonistic activity % Inhibition SV (0.5 mg/rat/po) | CX + DHT Antagonistic activity % Inhibition Prostate (0.5 mg/rat/po) | other results
1 | Cc1c(N2C(=O)C(C)(C)N(CCCOc3ccc(Oc4ccc(Cl)nc4)nc3)C2=S)ccc(C#N)c1Cl [EM-8828] | −137% | −26% | 31% | 
2 | CC1(C)C(=O)N(c2ccc(C#N)c(Cl)c2)C(=O)N1CCCOc1ccc(-c2ccncc2F)cc1 [EM-9267] | 76% | 87% | 55% | 
3 | Cc1c(N2C(=O)N(c3ccc(-c4cccnc4)cc3)C(C)(C)C2=O)ccc(C#N)c1C(F)(F)F [EM-9342] | 98% | 96% | 60% | 
4 | CC1(C)C(=O)N(c2ccc(C#N)c(C(F)(F)F)c2)C(=S)N1CCCOc1ccc(-c2ccncc2)c(F)c1 [EM-8851] | 91% | 86% | 62% | 
5 | CC1(C)C(=O)N(c2ccc(C#N)c(C(F)(F)F)c2)C(=S)N1CCCOc1cccc(-c2ccncc2)c1 [EM-8871] | 66% | 70% | 41% | 
6 | CC1(C)C(=O)N(c2ccc(C#N)c(Cl)c2)C(=O)N1CCCOc1ccc(-c2ccncc2)c(F)c1 [EM-9115] | 93 ± 2 (n = 2) % | 89 ± 2 (n = 2) % | 63 ± 2 (n = 2) % | 
7 | Cc1c(N2C(=O)N(CCCOc3ccc(-c4ccncc4)cc3F)C(C)(C)C2=O)ccc(C#N)c1F [EM-9204] | 66% | 91% | 62% | 
8 | CC1(C)C(=O)N(c2ccc(C#N)c(C(F)(F)F)c2)C(=S)N1CCCOc1ccc2cnccc2c1 [EM-9021] | 58% | 74% | 42% | 
9 | Cc1c(N2C(=O)N(CCCOc3ccc(-c4cc[n+]([O-])cc4)cc3)C(C)(C)C2=O)ccc(C#N)c1Cl [EM-9305] |  |  |  | CX + DHT Antagonistic activity % Inhibition Bulbo (0.1 mg/rat po): −45 ± 5 (n = 5, 0.1 mg/rat) %; CX + DHT Antagonistic activity % Inhibition SV (0.1 mg/rat po): 31 ± 5 (n = 5, 0.1 mg/rat) %; CX + DHT Antagonistic activity % Inhibition Prostate (0.1 mg/rat/po): 27 ± 3 (n = 5, 0.1 mg/rat) %
10 | Cc1c(N2C(=O)C(C)(C)N(CCCOc3ccc(-c4ccc(N(C)C)nc4)cc3)C2=S)ccc(C#N)c1Cl [EM-8993] | −74% | −43% | 24% | 
11 | Cc1c(N2C(=O)C(C)(C)N(CCCOc3ccc(-c4ccncc4)cc3C(F)(F)F)C2=S)ccc(C#N)c1Cl [EM-8773] | −91% | 16% | 61% | 
12 | CC1(C)C(=O)N(c2ccc(C#N)c(Cl)c2)C(=O)N1CCCOc1ccc(-c2cc[n+]([O-])cc2)cn1 [EM-9225] |  |  |  | CX + DHT Antagonistic activity % Inhibition Bulbo (0.1 mg/rat po): 30 (0.1 mg/rat) %; CX + DHT Antagonistic activity % Inhibition SV (0.1 mg/rat po): 68 (0.1 mg/rat) %; CX + DHT Antagonistic activity % Inhibition Prostate (0.1 mg/rat/po): 32 0.1 mg/rat %
13 | Cc1c(N2C(=O)C(C)(C)N(CCCOc3ccc(-c4cc[n+]([O-])cc4)c(Cl)c3)C2=S)ccc(C#N)c1Cl [EM-9036] |  |  |  | CX + DHT Antagonistic activity % Inhibition Bulbo (0.1 mg/rat po): −184 (0.1 mg/rat) %; CX + DHT Antagonistic activity % Inhibition SV (0.1 mg/rat po): −50 (0.1 mg/rat) %; CX + DHT Antagonistic activity % Inhibition Prostate (0.1 mg/rat/po): 27 (0.1 mg/rat) %
14 | Cc1c(N2C(=O)N(CCCOc3ccc(-c4ccncc4)cc3)C(C)(C)C2=O)ccc(C#N)c1Cl [EM-9300] |  |  |  | CX + DHT Antagonistic activity % Inhibition Bulbo (0.1 mg/rat po): −11 (0.1 mg/rat) %; CX + DHT Antagonistic activity % Inhibition SV (0.1 mg/rat po): 21 (0.1 mg/rat) %; CX + DHT Antagonistic activity % Inhibition Prostate (0.1 mg/rat/po): 13 (0.1 mg/rat) %
15 | Cc1c(N2C(=O)N(CCCOc3ccc(-c4cc[n+]([O-])cc4)cc3F)C(C)(C)C2=O)ccc(C#N)c1Cl [EM-9301] |  |  |  | CX + DHT Antagonistic activity % Inhibition Bulbo (0.1 mg/rat po): −19 ± 13 (n = 2, 0.1 mg/rat) %; CX + DHT Antagonistic activity % Inhibition SV (0.1 mg/rat po): 32 ± 4 (n = 2, 0.1 mg/rat) %; CX + DHT Antagonistic activity % Inhibition Prostate (0.1 mg/rat/po): 28 ± 4 (n = 2, 0.1 mg/rat) %
16 | Cc1c(N2C(=O)N(Cc3ccc(-c4cc[n+]([O-])cc4)cc3)C(C)(C)C2=O)ccc(C#N)c1Cl [EM-9345] |  |  |  | CX + DHT Antagonistic activity % Inhibition Bulbo (0.1 mg/rat po): 47 (0.1 mg/rat) %; CX + DHT Antagonistic activity % Inhibition SV (0.1 mg/rat po): 56 (0.1 mg/rat) %; CX + DHT Antagonistic activity % Inhibition Prostate (0.1 mg/rat/po): 31 (0.1 mg/rat) %

Row | Compound | CX + DHT Antagonistic activity % Inhibition Bulbo (0.5 mg/rat/po) | CX + DHT Antagonistic activity % Inhibition SV (0.5 mg/rat/po) | CX + DHT Antagonistic activity % Inhibition Prostate (0.5 mg/rat/po) | other results
17 | Cc1c(N2C(=O)C(C)(C)N(CCCOc3ccc(-c4ccncc4)cc3C(F)(F)F)C2=S)ccc(C#N)c1C(F)(F)F [EM-8772] | −79% | 19% | 52% | 
18 | CC1(C)C(=O)N(c2ccc(C#N)c(C(F)(F)F)c2)C(=S)N1CCCOc1ccc2c(ccc[n+]2[O-])c1 [EM-9028] | 10% | 64% | 42% | 
19 | CC1(C)C(=O)N(c2ccc(C#N)c(C(F)(F)F)c2)C(=S)N1CCCOc1ccc(-c2ccncc2)cc1F [EM-8872] | 62% | 79% | 56% | 
20 | CC1(C)C(=O)N(c2ccc(C#N)c(C(F)(F)F)c2)C(=O)N1CCCOc1ccc(-c2ccncc2)nc1 [EM-9111] | 63% | 87% | 53% | 
21 | CC1(C)C(=O)N(c2ccc(C#N)c(Cl)c2)C(=O)N1CCCOc1ccc(-c2ccncc2)cc1Cl.Cl [EM-9287] |  |  |  | CX + DHT Antagonistic activity % Inhibition Bulbo (0.3 mg/rat po): 71 (0.3 mg/rat) %; CX + DHT Antagonistic activity % Inhibition SV (0.3 mg/rat po): 101 (0.3 mg/rat) %; CX + DHT Antagonistic activity % Inhibition Prostate (0.3 mg/rat po): 37 (0.3 mg/rat) %
22 | Cc1ccc2cc(OCCCN3C(=O)N(c4ccc(C#N)c(C(F)(F)F)c4)C(=O)C3(C)C)ccc2n1 [EM-9090] | 28% | 31% | 6% | 
23 | Cc1c(N2C(=O)N(CCCOc3ccc(-c4ccncc4)cc3F)C(C)(C)C2=O)ccc(C#N)c1Cl [EM-9297] |  |  |  | CX + DHT Antagonistic activity % Inhibition Bulbo (0.1 mg/rat po): −57 ± 2 (n = 2, 0.1 mg/rat) %; CX + DHT Antagonistic activity % Inhibition SV (0.1 mg/rat po): 37 ± 7 (n = 2, 0.1 mg/rat) %; CX + DHT Antagonistic activity % Inhibition Prostate (0.1 mg/rat/po): 31 ± 11 (n = 2, 0.1 mg/rat) %
24 | Cc1c(N2C(=O)C(C)(C)N(CCCOc3ccc(-c4ccnc(F)c4)cc3)C2=S)ccc(C#N)c1Cl [EM-8922] | 0% | 0% | 20% | 
25 | CC1(C)C(=O)N(c2ccc(C#N)c(Cl)c2)C(=O)N1CCCOc1ccc(-c2ccncc2)cc1 [EM-9116] | 87 ± 2 (n = 2) % | 88 ± 2 (n = 2) % | 57 ± 2 (n = 2) % | 
26 | Cc1c(N2C(=O)C(C)(C)N(CCCOc3ccc(-c4ccncc4)cc3Cl)C2=S)ccc(C#N)c1Cl [EM-8799] | 0% | 0% | 0% | 
27 | Cc1c(N2C(=O)C(C)(C)N(CCCOc3ccc(-c4cncnc4)cc3)C2=S)ccc(C#N)c1Cl [EM-8685] | −110% | −18% | 15% | 
28 | CC1(C)C(=O)N(c2ccc(C#N)c(C(F)(F)F)c2)C(=S)N1CCCOc1ccc(-c2ccnc(F)c2)cc1 [EM-8923] | 61% | 83% | 50% | 
29 | CC1(C)C(=O)N(c2ccc(C#N)c(C(F)(F)F)c2)C(=S)N1CCCOc1ccc(-c2ccncc2)nc1 [EM-9092] | 55% | 90% | 57% | 
30 | CC1(C)C(=O)N(c2ccc(C#N)c(C(F)(F)F)c2)C(=O)N1CCCOc1ccc(-c2ccncc2)cc1F [EM-9055] | 73% | 91% | 51% | 
31 | Cc1c(N2C(=O)C(C)(C)N(CCCOc3ccc(-c4ccncc4)c(C(F)(F)F)c3)C2=S)ccc(C#N)c1Cl [EM-8820] | −146% | 1% | 26% | 
32 | CC1(C)C(=O)N(c2ccc(C#N)c(C(F)(F)F)c2)CC(=O)N1CCCOc1ccc(-c2ccncc2)cc1 [EM-9126] | 90% | 79% | 47% | 
